{"source": "patent US20250205240A1", "about": "“COMBINATIONS” (Recurium IP Holdings, LLC, priority 2022, published 2025)", "key": {"[1]": {"tested_on": "HT-29 cell line", "assay": "In vitro tumor cell proliferation assay (3D spheroid, 3D CTG), HT-29", "format": "cell-based", "settings": "HT-29 spheroids, 192 h; 300 nM ZN-c3, 10 nM encorafenib, 25 μg/mL cetuximab; relative to 0.1% DMSO", "description": "(§1) Cell suspensions containing 1.5×10^3 total cells in 100 μL culture media were deposited in each well of an ultra-low attachment 96 well plate. Plates were incubated at 37° C. with […] and 5% CO2 for 72 h to allow for spheroid formation. […] ZN-c3 and/or Encorafenib compounds in DMSO were deposited into the plates using an automated drug dispenser at the indicated concentrations. Total DMSO content was normalized to 0.1% of the total volume in all assay conditions. Plates were sealed with breathable film to reduce evaporation and incubated at 37° C. with […] and 5% CO2 for 192 h. After 192 h, plates were removed from the incubator and allowed to come to room temperature. 100 μL room temperature 3D CTG reagent (Promega, Cat #G9683) was added to each well. Plates were agitated at 520 revolutions per minute (rpm) for 5 mins, allowed to stabilize protected from light for 30 mins, then luminescence was measured on an M5e plate reader (SpectraMax). Percent viability was calculated as percentage of cell viability relative to DMSO-only vehicle control."}, "[2]": {"tested_on": "LS411N cell line", "assay": "In vitro tumor cell proliferation assay (3D spheroid, 3D CTG), LS411N", "format": "cell-based", "settings": "LS411N spheroids, 192 h; 350 nM ZN-c3, 75 nM encorafenib, 25 μg/mL cetuximab; relative to 0.1% DMSO", "description": "as §1"}, "[3]": {"tested_on": "HT-29 CDX model (BRAFmt CRC)", "format": "in vivo, BALB/c nude mice", "settings": "ZN-c3 60 mg/kg QD p.o., encorafenib 15 mg/kg QD p.o., cetuximab 15 mg/kg BIW i.p.", "description": "(§2) CDX Models: 6-8 week old BALB/c nude mice were inoculated subcutaneously on the right flank with the single cell suspension of 95% viable tumor cells (5×10^6) in 100 μL RPMI 1640 without serum (COLO205), 95% viable tumor cells (2×10^6) in 100 μL McCoy's 5a Medium Modified without serum (HT-29), or 95% viable tumor cells (2×106) in 100 μL RPMI 1640 and Matrigel mixture (1:1 ratio) without serum (LS411N).\n(§3) Grouping and treatments started when the mean tumor volume reached about 220 mm^3 (with individual tumors in the range of 200-240 mm^3). Vehicle animals were treated daily with 10 mL/kg HP-β-CD p.o. (oral gavage). Encorafenib was prepared weekly in 0.5% carboxymethyl cellulose: 0.5% Tween 80:99% deionized water and dosed daily (QD) at the indicated doses orally (p.o.) (see Tables 4 and 5 for dosage amounts). ZN-c3 was prepared daily in 20% HP-B-CD and dosed daily at the indicated doses p.o. (see Tables 4 and 5 for dosage amounts). […] Body weight and tumor volume of all animals was measured twice weekly throughout the studies that were 21 or 22 days or 3 weeks in duration (for CDX models HT-29 and LS411N) or that were 28 days or 4 weeks in duration (for PDX models CRC769, CRC563 and CTG-1009). The measurement of tumor size was performed with a caliper and the tumor volume (mm3) was estimated using the formula: TV=a×b2/2 throughout the study, where “a” and “b” is long and short diameters of a tumor, respectively. Animals were euthanized when their individual tumor burden exceeded 2000 mm^3 or is in a continuing deteriorating condition or close to a comatose state."}, "[4]": {"tested_on": "LS411N CDX model (BRAFmt CRC)", "format": "in vivo, BALB/c nude mice", "settings": "ZN-c3 60 mg/kg QD p.o., encorafenib 20 mg/kg QD p.o., cetuximab 15 mg/kg BIW i.p.", "description": "as §2, §3"}, "[5]": {"tested_on": "CRC563 PDX model (BRAFmt CRC)", "format": "in vivo, female athymic nude Foxn1nu mice", "settings": "ZN-c3 60 mg/kg QD p.o., encorafenib 20 mg/kg QD p.o., cetuximab 20 mg/kg BIW i.p., 28-day study", "description": "(§4) PDX Models: Tumor fragments (CRC769, CRC563, CTG-1009) were brought out of cryopreservation and implanted into female athymic nude Foxn1nu mice. Fragments were allowed to grow then excised once an appropriate volume was reached. A tumor slurry was made of 50% freshly harvested tumors minced to small tumor fragments in PBS and 50% Matrigel. The tumor slurry was injected subcutaneously into 6-8 week old female athymic nude Foxn1nu mice on the flank.\nas §3"}, "[6]": {"tested_on": "CRC769 PDX model (BRAFmt CRC)", "format": "in vivo, female athymic nude Foxn1nu mice", "settings": "ZN-c3 60 mg/kg QD p.o., encorafenib 20 mg/kg QD p.o., cetuximab 20 mg/kg BIW i.p., 28-day study", "description": "as §4, §3"}, "[7]": {"tested_on": "CTG-1009 PDX model (BRAFmt CRC)", "format": "in vivo, female athymic nude Foxn1nu mice", "settings": "ZN-c3 60 mg/kg QD p.o., encorafenib 20 mg/kg QD p.o., cetuximab 15 mg/kg BIW i.p., 28-day study", "description": "as §4, §3"}}, "data": [{"substance": "cetuximab", "values": [{"measurement": "% Inhibition", "setting": "[1]", "value": 3.66, "unit": "%"}, {"measurement": "% Inhibition", "setting": "[2]", "value": 0.91, "unit": "%"}, {"measurement": "Tumor Vol. Change from D 14-D 21 (%)", "setting": "[3]", "value": 38.7, "unit": "%"}, {"measurement": "TGI", "setting": "[3]; 21- or 22-day study", "value": 12.2}, {"measurement": "Tumor Vol. Change from D 14-D 21 (%)", "setting": "[4]", "value": 44.9, "unit": "%"}, {"measurement": "TGI", "setting": "[4]; 21- or 22-day study", "value": 15.9}, {"measurement": "TGI", "setting": "[5]", "value": 21.8}, {"measurement": "TGI", "setting": "[6]", "value": "−4.5"}, {"measurement": "TGI", "setting": "[7]", "value": "−42.6"}]}]}
